# Data reported in PubChem BioAssay AID485281 (National Center for Advancing Translational Sciences (NCATS), 2010).
# Sequences of proteins named here, by UniProt entry; tags and fusion partners are left off. A change or cut given only in a name is not applied to a line headed by its entry.
# UniProt P02791: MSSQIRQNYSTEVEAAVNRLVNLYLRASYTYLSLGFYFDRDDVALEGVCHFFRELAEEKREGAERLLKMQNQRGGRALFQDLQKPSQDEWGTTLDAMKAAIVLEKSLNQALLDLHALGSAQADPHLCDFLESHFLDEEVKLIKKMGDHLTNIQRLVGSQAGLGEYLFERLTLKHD
# Values joined by “and” are separate entries in the source; they are usually repeats but may differ in a detail not shown here. Equal entries are not always repeated. Only a part is listed here, and it is no random draw. Records with an inconclusive call do not appear. Active and inactive are the calls of the source. The call rests on the fitted dose curve; in most records, active means well fitted inhibition curve with a large enough effect; inconclusive means small, poorly fitted or top-dose-only effect; inactive means no such curve, though single readings can be large or run the other way.
# Biological target: Ferritin light chain (Equus caballus) (UniProt P02791)
# Assay: qHTS Assay for Identification of Novel General Anesthetics; further: nearly all actives have a fitted effect of over 20% in size
# Conditions: apoferritin/1-aminoanthracene competitive binding, fluorescence; at 77.5 µM (top of the series) unless noted
# On the % scale 0 is the no-effect control and ±100 the full control effect.
row,SMILES,"activity change, negative = displacement"
1,COC(=O)c1cc2c(s1)N=C(c1ccccc1)N(C)P2(=O)N1CCOCC1 (stereo unspecified),inactive: -10.3%
2,CN(C(=O)Cc1ccc(Cl)c(Cl)c1)[C@H]1CCCC[C@@H]1N1CCCC1,inactive: -3.4% [middle of 5 runs]
3,Cc1ccc(NP(=O)(Oc2ccccc2F)Oc2ccccc2F)nc1,inactive: -5.51%
4,Cc1cc(SC(NC(=O)c2ccc(F)cc2)C(Cl)(Cl)Cl)ncn1 (stereo unspecified),inactive: -11.7%
5,CCOP(=O)(Nc1ccccc1)OCC,inactive: -3.16% and inactive: -9.97%
6,O=P(Nc1nc2ccc(Cl)cc2s1)(c1ccccc1)c1ccccc1,inactive: -7.92%
7,CC(=O)Nc1ccc([As](=O)(O)O)cc1,inactive: 25.9%
8,O=C(O)c1ccccc1[As](=O)(O)O,inactive: 11.2%
9,Nc1cccc2ccc([As](=O)(O)O)cc12,inactive: 51.6%
10,CCN(N=Nc1nonc1N)c1nonc1N,inactive: -0.511%
11,O=[N+]([O-])c1cc([N+](=O)[O-])c(CCN2CCOCC2)c([N+](=O)[O-])c1,inactive: -6.2%
12,CN1CCCC(OC(=O)C(c2ccccc2)c2ccccc2)C1 (stereo unspecified),inactive: 1.83%
13,Cc1ccc(OP(=O)(Nc2nccs2)Oc2ccc(C)cc2)cc1,inactive: -13.8%
14,COc1ccccc1OP(=O)(Nc1ccc(C)cn1)Oc1ccccc1OC,inactive: -5.35%
15,Cc1ccc(N/C(=N/P(=O)(N2CCOCC2)N2CCOCC2)N2CCOCC2)cc1,inactive: -8.16%
16,NC(=O)c1cc([N+](=O)[O-])cc([N+](=O)[O-])c1N,inactive: -7.36%
17,O=C(NC(Sc1ccncn1)C(Cl)(Cl)Cl)c1ccccc1 (stereo unspecified),inactive: -2.24%
18,Cc1c2non([O-])c-2c(C)[n+](=O)[n+]1[O-],inactive: -17.8%

row,SMILES,"activity change, negative = displacement"
1,Nc1cc(N)c2nonc2c1[N+](=O)[O-],inactive: 6.78%
2,CC(C)CC(=O)NC(Sc1ccc(Cl)cc1)C(Cl)(Cl)Cl (stereo unspecified),inactive: -21.8%
3,CCc1nc2c(n1)c1c(non1O)c1c2no[n+]1[O-],inactive: -18.6%
4,Cc1ccc(NP(=O)(Oc2ccccc2)Oc2ccccc2)nc1,inactive: -3.5%
5,CC(=O)N1C2C3N(C(C)=O)C1C1N(C(C)=O)C(C(N1C(C)=O)N3C(C)=O)N2C(C)=O,inactive: -3.17%
6,O=[N+]([O-])c1cccc2n[nH]nc12,inactive: -0.144%
7,COc1ccc(C2=NCC(CBr)S2)cc1 (stereo unspecified),inactive: -16%
8,CC(=O)C1=CCCC2CCC1N2 (stereo unspecified),inactive: -1.36% and inactive: 3.1%
9,CN(C)C(=O)OCCc1n(C)cc[n+]1C,inactive: -9.12%
10,CC(C)=N/N=C(\N)N[N+](=O)[O-],inactive: -1.73%
11,CCN(/C(=N/P(=O)(N1CCOCC1)N1CCOCC1)N1CCOCC1)c1ccc(OC)cc1,inactive: -2.07%
12,C[N+]1=C2C=CC=CC=C2SC12C([N+](=O)[O-])=CC([N+](=O)[O-])=C[C-]2[N+](=O)[O-] (stereo unspecified),inactive: -6.8%
13,Nc1ccc([As](=O)(O)c2ccc(N)cc2)cc1,inactive: 8.62%
14,O=C(Nc1cc([As](=O)(O)O)ccc1O)c1ccccc1,inactive: 30.5%
15,O=C(O)CNc1ccc([As](=O)(O)O)cc1,inactive: 1%
16,O=[N+]([O-])c1cccc(NC2=NCC(CBr)S2)c1 (stereo unspecified),inactive: -17%
17,O=[N+]([O-])c1ncn(CCn2ncnc2[N+](=O)[O-])n1,inactive: -0.814%
18,CC(C)(C)C(=O)NC(Sc1ccncn1)C(Cl)(Cl)Cl (stereo unspecified),inactive: 4.73%
